This experiment addresses PD-1/PD-L1 (Homo sapiens, UniProt Q9NZQ7). Put plainly: PD-1/PD-L1 homogeneous time-resolved fluorescence (HTRF) binding assay. Conditions: PD-1/PD-L1 HTRF binding, ~3 nM PD1, 10 nM PD-L1, 25° C., PBS pH 7.4. How it is done:
Assays were performed in standard black 384-well polystyrene plates and a final volume was 20 μL. The inhibitor was first serially diluted with DMSO and added to the wells of the plate, followed by the addition of other reaction components. The final concentration of DMSO in the assay was 1%. Assays were performed at 25° C. in PBS buffer (pH 7.4) containing 0.05% Tween-20 and 0.1% BSA. Recombinant human PD-L1 protein (19-238) with a His-tagged at the C-terminus was purchased from AcroBiosystems (PD1-H5229). Recombinant human PD-1 protein (25-167) with an Fc tag at the C-terminus was also purchased from AcroBiosystems (PD1-H5257). The PD-L1 and PD-1 proteins were diluted in assay buffer and then […] of the solution was extracted and added to the wells of the plate. Plates were centrifuged and proteins and inhibitors were preincubated for 40 minutes. After incubation, 0.1 μl of HTRF detection buffer containing europium […] labeled anti-human IgG (PerkinElmer-AD0212), Fc-specific and anti-His SureLight®-Allophycocyanin (APC, PerkinElmer-AD0059H) conjugated antibodies was added. After centrifugation, the plates were incubated at 25° C. for 60 minutes. Data was read in a PHERAstar FS plate reader (665 nm/620 nm ratio). Final concentrations in the assay were ˜3 nM PD1, 10 nM PD-L1, 1 nM europium anti-human IgG, and 20 nM anti-His-allophycocyanin. Activity data were fitted using GraphPad Prism 5_0 software to derive IC50 values for inhibitors.

By UniProt entry, the sequences of proteins in these tests, tags left out. Residues count along the entry.
UniProt Q9NZQ7, 19-238 limits assumed: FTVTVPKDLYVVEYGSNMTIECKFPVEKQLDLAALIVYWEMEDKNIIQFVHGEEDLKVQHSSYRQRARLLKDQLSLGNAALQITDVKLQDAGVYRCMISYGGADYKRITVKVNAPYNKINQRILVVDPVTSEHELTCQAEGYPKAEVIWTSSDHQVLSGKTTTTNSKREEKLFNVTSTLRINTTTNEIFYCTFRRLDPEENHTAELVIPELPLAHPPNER

In the case of `N#Cc1c2c(cc3nc(-c4cccc(-c5cccc(Nc6nccc7cc(CN8CC[C@@H](O)C8)cnc67)c5Cl)c4Cl)oc13)[C@H](NCC(=O)O)CC2`, the IC50 is < 10 nM.
In the case of `Cc1c(Nc2nccc3cc(CN4CC[C@@H](O)C4)cnc23)cccc1-c1cccc(-c2nc3cc4c(c(C#N)c3o2)CCC4N2CC(C(=O)O)C2)c1C` (stereo partly drawn) it was < 10 nM; in that of `N#Cc1c2c(cc3nc(-c4cccc(-c5cccc(Nc6nccc7cc(CN8CC[C@@H](O)C8)cnc67)c5Cl)c4Cl)oc13)[C@H](N1CC[C@@H](C(=O)NS(=O)(=O)C3CC3)C1)CC2` [Compound 236], < 10 nM.

Source of the values: patent US20220372031A1, “NOVEL TRICYCLIC AROMATIC HETEROCYCLIC COMPOUND, PREPARATION METHOD THEREFOR, PHARMACEUTICAL COMPOSITION AND APPLICATION THEREOF” (SHANGHAI LONGWOOD BIOPHARMACEUTICALS CO., LTD., priority 2019, published 2022).
